## Yeast mating assay 2: variants of the scFv Ab-95

The measurements come from Engelhart et al. 2022 (doi:10.1038/s41597-022-01779-4) through the FLAb antibody collection.

All variants were tested on one target, the spike HR2 peptide PDVDLGDISGINAS (SARS-CoV-2).

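Phage display of a naive human antibody library on the peptide gave the parent. AAYL52 was designed without a model: most single CDR substitutions and a random sample of double and triple ones. In AlphaSeq, yeast of one mating type display the scFv and yeast of the other type display the target. Mating (16 h, 30 °C) was followed by selection of diploids and sequencing of their barcodes. The ratio of observed to expected reads was calibrated, replicate by replicate, on BCL2-family standards whose Kd was known from biolayer interferometry. Each pool was mated in three replicate cultures.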

Parent scFv Ab-95: VH joined to VL by a 15-residue (Gly4Ser)3 linker. Changes lie in the light chain CDRs alone.
VH: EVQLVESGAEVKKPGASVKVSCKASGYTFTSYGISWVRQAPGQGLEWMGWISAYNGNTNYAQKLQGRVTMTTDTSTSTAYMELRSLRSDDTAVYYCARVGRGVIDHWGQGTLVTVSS
VL: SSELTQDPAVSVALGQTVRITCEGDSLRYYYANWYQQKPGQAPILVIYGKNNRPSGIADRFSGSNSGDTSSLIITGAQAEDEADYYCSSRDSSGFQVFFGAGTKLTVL

Positions count from residue 1 of the parent VL; G24I puts I in place of G. Values are log10 of the apparent Kd in nM; lower means stronger binding. The mean shown is taken over the replicates in which the pair was detected. "ND" marks a missing value. The strain was present, yet no cells mated with the target were sequenced in that replicate, which points to weak or no binding. Background: pairings of library AAYL52 with three empty control strains gave a value in 28% of cases (median 3.91, 5th percentile 2.90). Values in that range, when seen in few replicates, are hard to tell from nonspecific mating. For each scFv, signals with the empty controls are counted beside the result, with their mean in brackets.

| changes | replicates, log10 nM | log10 Kd (nM), mean | empty controls |
|---|---|---|---|
| G24I/S26H/Y31F | 4.93 / 3.81 / 3.41 | 4.05 | 5 of 9 (4.56) |
| E23S/S88G/F98G | 2.89 / 3.10 / 2.82 | 2.93 | 3 of 9 (3.83) |
| D25T/L27G/P54E | ND / 4.77 / ND | 4.77 | 3 of 9 (4.54) |
| Y30L/N51H/S88A | 3.73 / ND / ND | 3.73 | 4 of 9 (3.92) |
| N52R/P54L/V97Y | ND / 4.70 / ND | 4.70 | 2 of 9 (4.58) |
| A32D/K50Y/P54R | ND / ND / ND | ND | 2 of 9 (3.93) |
| S26H/N51I/S93F | 3.95 / 4.07 / ND | 4.01 | 2 of 9 (3.75) |
| Y31V/A32S/S89N | 3.77 / ND / 4.16 | 3.97 | 1 of 9 (3.33) |
| D25G/R28N/K50Q | 1.69 / 1.54 / 1.19 | 1.47 | 1 of 9 (3.28) |
| G24Y/Y30W | 3.67 / 3.92 / 2.74 | 3.44 | 4 of 9 (3.88) |
| S26K/R28C/R53H | 3.50 / ND / ND | 3.50 | 2 of 9 (2.56) |
| Y31Q/S88C/S93E | 1.85 / 1.75 / 1.10 | 1.56 | 2 of 9 (3.24) |
| E23M/G24I/Y29N | 3.69 / 3.71 / 4.22 | 3.87 | 6 of 9 (4.21) |
| S55D/S89Q | 2.40 / 2.22 / 1.87 | 2.16 | 2 of 9 (4.27) |
| S26D/N51F | 4.47 / 4.62 / ND | 4.54 | 3 of 9 (3.64) |
| N51R/R53L/D91P | ND / ND / ND | ND | 1 of 9 (3.24) |
| S88Q/D91W/S92I | ND / 5.70 / ND | 5.70 | 1 of 9 (3.24) |
| G24W/Y31C/N51C | 3.31 / 4.35 / ND | 3.83 | 4 of 9 (4.06) |
| L27W/Y29T/R90N | ND / ND / ND | ND | 0 of 9 |
| N51H/S89D/S93T | ND / ND / 2.80 | 2.80 | 2 of 9 (3.79) |
| S26W/N33L/K50V | ND / ND / 4.25 | 4.25 | 0 of 9 |
| E23G/K50N | 2.20 / 2.04 / 2.08 | 2.11 | 4 of 9 (4.12) |
| Y31G/F95K/V97Y | 2.20 / 2.47 / 2.76 | 2.48 | 2 of 9 (3.38) |
| S26H/N52D/F98E | ND / 3.91 / ND | 3.91 | 1 of 9 (3.45) |
| G24A/S89R/F98V | 3.65 / 3.42 / ND | 3.53 | 5 of 9 (4.21) |
| D25G/K50L/R53G | 3.39 / ND / 4.16 | 3.78 | 5 of 9 (3.68) |
| G24R/K50I/S55G | ND / ND / ND | ND | 2 of 9 (3.59) |
| L27Y/F95Q/Q96C | ND / ND / ND | ND | 2 of 9 (2.48) |
| S26F/Y30I/R90W | 3.26 / 4.04 / 3.91 | 3.73 | 1 of 9 (2.60) |
| E23K/N33E/Q96W | ND / ND / ND | ND | 1 of 9 (3.94) |
| G24R/Y30T/K50F | 3.10 / 2.91 / 3.58 | 3.20 | 2 of 9 (2.83) |
| D25K/S26Y/S55W | 3.75 / ND / ND | 3.75 | 3 of 9 (3.98) |
| Y31R/S55L/S93W | 2.99 / 3.04 / 2.62 | 2.88 | 3 of 9 (3.72) |
| E23Y/S26F/D91M | ND / 3.25 / ND | 3.25 | 2 of 9 (4.49) |

Extract of 4 entries:

| changes | replicates, log10 nM | log10 Kd (nM), mean | empty controls |
|---|---|---|---|
| G24R/Y30T/K50F | 3.10 / 2.91 / 3.58 | 3.20 | 2 of 9 (2.83) |
| Y31G/F95K/V97Y | 2.20 / 2.47 / 2.76 | 2.48 | 2 of 9 (3.38) |
| E23G/K50N | 2.20 / 2.04 / 2.08 | 2.11 | 4 of 9 (4.12) |
| L27W/Y29T/R90N | ND / ND / ND | ND | 0 of 9 |

For reference, the parent read 2.31 as the reference entry and 2.25 as a member of this library.